# Experimental data as given in PubChem BioAssay AID602410 (Johns Hopkins Ion Channel Center, 2012).
# Sequences of proteins named here, by UniProt entry; tags and fusion partners are left off.
# UniProt O14649, whole entry: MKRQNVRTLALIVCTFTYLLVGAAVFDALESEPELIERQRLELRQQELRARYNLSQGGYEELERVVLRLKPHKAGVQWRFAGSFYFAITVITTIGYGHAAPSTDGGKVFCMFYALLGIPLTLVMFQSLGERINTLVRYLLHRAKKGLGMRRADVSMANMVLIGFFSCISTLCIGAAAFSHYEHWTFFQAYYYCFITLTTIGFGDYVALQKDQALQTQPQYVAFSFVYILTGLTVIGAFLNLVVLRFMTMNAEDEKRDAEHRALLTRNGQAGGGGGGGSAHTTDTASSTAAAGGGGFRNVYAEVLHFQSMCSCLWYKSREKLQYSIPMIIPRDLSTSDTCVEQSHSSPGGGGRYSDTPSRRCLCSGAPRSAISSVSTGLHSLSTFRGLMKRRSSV
# The list shows a part of the results, in another mix than the full data. Calls of active or inactive are those of the source.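 How the source made its calls: active means B-score under library mean minus 4 SD, starting fluorescence ratio at most library mean plus 5 SD; inactive means the rest.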
# Target: Potassium channel subfamily K member 3 (Homo sapiens) (UniProt O14649)
# Assay: blockers of TASK1 two-pore potassium channel – CHO cells, FluxOR thallium flux, B-score, primary screen (AID 602410)
# Conditions: CHO-KCNK3 thallium flux, FluxOR fluorescence; at 10 µM
row,SMILES,outcome
1,Cc1ccccc1NP(C)(=O)Nc1ccccc1C,inactive
2,CP(=O)(Nc1ccc2c(c1)OCCO2)Oc1ccccc1 (centres undefined),inactive
3,c1nnnn1CCn1cnnn1,inactive
4,CCOP(C)(=S)SCC(=O)NC(C)(CC)C(=O)O (centres undefined),inactive
5,O=P(Nc1nccs1)(c1ccccc1)c1ccccc1,inactive
6,CC(C)C(=O)NC(Sc1ccccc1)C(Cl)(Cl)Cl (centres undefined),inactive
7,CP(=O)(Nc1ccc(SC(F)(F)F)cc1)Oc1ccc(F)cc1 (centres undefined),inactive
8,O=C(OC1CN2CCC1CC2)c1cccc(Cl)c1 (centres undefined),inactive
9,Nc1ccc([As](=O)(O)c2ccc([N+](=O)[O-])cc2)cc1,inactive
10,C(Cc1nn[nH]n1)Cc1nn[nH]n1,inactive
11,Cc1c(C(c2ccc3c(c2)OCO3)c2c(C)n(C)n(-c3ccccc3)c2=O)c(=O)n(-c2ccccc2)n1C.O=[N+]([O-])c1cc([N+](=O)[O-])c(O)c([N+](=O)[O-])c1,inactive
12,O=[N+]([O-])c1cc([N+](=O)[O-])c(NCC2CCS(=O)(=O)C2)c([N+](=O)[O-])c1 (centres undefined),inactive
13,Cc1cc(-c2cccc3ccccc23)c(C)cn1.O=[N+]([O-])c1cc([N+](=O)[O-])c(O)c([N+](=O)[O-])c1,inactive
14,O=[As](O)(c1ccccc1)c1ccc(O)cc1,inactive
15,O=[N+]([O-])c1ncn(CCn2cnc([N+](=O)[O-])n2)n1,inactive
16,O=[N+]([O-])c1ccc(OP2(=O)COCCO2)cc1 (centres undefined),inactive
17,CC(=O)NC(SC(=S)N(C)C)C(Cl)(Cl)Cl (centres undefined),inactive
18,O=[N+]([O-])c1ccc(O)c(/C=N/Nc2ccc([N+](=O)[O-])cc2[N+](=O)[O-])c1,inactive
19,COc1ccc(NP(C)(=O)Oc2ccccc2OC)cc1 (centres undefined),inactive
20,C[C@H]1OP(=O)(Oc2ccccc2)[C@H](O)[C@H](O)[C@H]1N=[N+]=[N-] (some centres undefined),inactive
21,O=P(Nc1nc2ccccc2s1)(c1ccccc1)c1ccccc1,inactive
22,CN(C)CCOC(=O)C(O)(c1ccccc1)C1CCCCC1 (centres undefined),inactive
23,CN(C)C1(CNC(=O)c2ccc(Cl)c(S(N)(=O)=O)c2)CCCCC1,inactive
24,O=P(Nc1ccccn1)(c1ccc(Br)cc1)c1ccc(Br)cc1,inactive
25,COc1ccc(N)c([N+](=O)[O-])c1[N+](=O)[O-],inactive
26,COc1ccc(OP(C)(=O)Nc2cccc(Br)c2)cc1 (centres undefined),inactive
27,CN(C)C(=O)Oc1noc2ccccc12,inactive
28,O=[N+]([O-])c1cc([N+](=O)[O-])c(OC2CCCCC2O)c([N+](=O)[O-])c1 (centres undefined),inactive
29,O=c1c2cc([N+](=O)[O-])ccc2[nH]c2c([N+](=O)[O-])cc([N+](=O)[O-])cc12,inactive
